Data reported in patent US9663526B2, “Aminopyrimidinyl compounds” (Pfizer Inc., priority 2014, dated 2017).

Chains of the proteins cited; added tags and fusions are not shown. Residues count along the entry.
UniProt P23458, 875-1153: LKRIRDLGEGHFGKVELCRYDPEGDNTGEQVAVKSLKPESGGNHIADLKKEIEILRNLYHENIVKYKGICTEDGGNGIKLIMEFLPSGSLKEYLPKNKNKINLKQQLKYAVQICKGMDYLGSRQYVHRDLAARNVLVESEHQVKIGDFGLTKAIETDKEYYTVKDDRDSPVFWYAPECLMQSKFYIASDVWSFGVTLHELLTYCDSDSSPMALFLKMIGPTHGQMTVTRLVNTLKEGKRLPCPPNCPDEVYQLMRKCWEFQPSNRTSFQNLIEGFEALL
UniProt P29597, 897-1176: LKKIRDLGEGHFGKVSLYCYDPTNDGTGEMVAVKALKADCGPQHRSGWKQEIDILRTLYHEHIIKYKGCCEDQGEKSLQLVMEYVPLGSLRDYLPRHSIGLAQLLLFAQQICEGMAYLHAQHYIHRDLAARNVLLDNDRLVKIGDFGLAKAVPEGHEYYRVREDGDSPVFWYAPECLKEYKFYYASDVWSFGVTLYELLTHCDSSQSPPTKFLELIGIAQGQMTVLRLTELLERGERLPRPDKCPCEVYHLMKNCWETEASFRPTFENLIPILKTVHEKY

These molecules were tested against recombinant human kinase domain of JAK1 (Homo sapiens (Human), UniProt P23458) (assay: JAK Caliper enzyme assay at 1 mM ATP (JAK1);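 also: microfluidic mobility-shift readout of synthetic fluorescent peptide phosphorylation, percent product converted from peak height, inhibition relative to DMSO-only wells as uninhibited baseline, room temperature incubation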).
Type: biochemical

Row | IC50 | SMILES
1 | 2300 nM | C[C@@H]1[C@@H]2CN(c3nc(Nc4cnc([C@@H](C)O)c(Cl)c4)ncc3F)C[C@]12NC(=O)C1CC1 [Example 106, N-{(1S,5R,6R)-3-[2-({5-chloro-6-[(1R)-1-hydroxyethyl]pyridin-3-yl}amino)-5-fluoropyrimidin-4-yl]-6-methyl-3-azabicyclo[3.1.0]hex-1-yl}cyclopropanecarboxamide]

What follows are molecules tested against recombinant human kinase domain of TYK2 (Homo sapiens (Human), UniProt P29597) (assay: JAK Caliper enzyme assay at 1 mM ATP (TYK2);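 also: microfluidic mobility-shift readout of synthetic peptide phosphorylation by TYK2, tuned to 20–30% conversion at room temperature, reaction stopped with EDTA, DMSO-only wells as uninhibited baseline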).
Type: biochemical

Row | SMILES | IC50
2 | Cc1cc(Nc2nccc(N3C[C@H]4CC[C@@H](C3)N4C(=O)C3CC3(F)F)n2)cnc1C(N)=O (stereo partly drawn) [Example 34, 5-[(4-{(1R,5S)-8-[(2,2-difluorocyclopropyl)carbonyl]-3,8-diazabicyclo[3.2.1]oct-3-yl}pyrimidin-2-yl)amino]-3-methylpyridine-2-carboxamide] | 36 nM
3 | CNC(=O)c1ncc(Nc2nccc(N3C[C@H]4CC[C@@H](C3)N4C(=O)[C@H]3C[C@@H]3F)n2)cc1C [Example 44, 5-({4-[(1R,5S)-8-{[(1R,2S)-2-fluorocyclopropyl]carbonyl}-3,8-diazabicyclo[3.2.1]oct-3-yl]pyrimidin-2-yl}amino)-N,3-dimethylpyridine-2-carboxamide] | 72 nM
4 | CCNC(=O)c1ccc(Nc2ncc(F)c(N3C[C@H]4CC[C@@H](C3)N4C(=O)C(F)(F)F)n2)cc1C [Example 72, N-ethyl-4-({5-fluoro-4-[8-(trifluoroacetyl)-3,8-diazabicyclo[3.2.1]oct-3-yl]pyrimidin-2-yl}amino)-2-methylbenzamide] | 6 nM
5 | CNC(=O)c1ncc(Nc2nccc(N3C[C@H]4CC[C@@H](C3)N4C(=O)NCC#N)n2)cc1C [Example 90, (1R,5S)—N-(cyanomethyl)-3-(2-{[5-methyl-6-(methylcarbamoyl)pyridin-3-yl]amino}pyrimidin-4-yl)-3,8-diazabicyclo[3.2.1]octane-8-carboxamide] | 14 nM
6 | Cc1cnc(Nc2ccc(OCCO)nc2)nc1N1C[C@H]2[C@@H](C)[C@@]2(NC(=O)[C@H]2C[C@@H]2C#N)C1 [Example 98, (1S,2S)-2-cyano-N-[(1S,5R,6R)-3-(2-{[6-(2-hydroxyethoxy)pyridin-3-yl]amino}-5-methylpyrimidin-4-yl)-6-methyl-3-azabicyclo[3.1.0]hex-1-yl]cyclopropanecarboxamide] | 19 nM
